ChEMBL document CHEMBL4680083, “Identification of Tricyclic Agonists of Sphingosine-1-phosphate Receptor 1 (S1P) Employing Ligand-Based Drug Design” (J Med Chem, 2016)

Assays:
Assay type in all cases: cell-based
[1] = Selectivity index, ratio of EC50 for agonist activity at human S1P5 to EC50 for agonist activity at human S1P1 expressed in CHO cell membranes
[2] = Selectivity index, ratio of EC50 for agonist activity at human S1P4 to EC50 for agonist activity at human S1P1 expressed in CHO cell membranes
[3] = Selectivity index, ratio of EC50 for agonist activity at rat S1P3 to EC50 for agonist activity at rat S1P1 expressed in CHO cell membranes

`O=C(O)C1CN(Cc2ccc3c(c2)CCc2c-3noc2-c2onc(-c3ccccc3)c2C(F)(F)F)C1` gave a Selectivity Index [1] of 2.4, a Selectivity Index [2] of 2.4 and a Selectivity Index [3] of 6100.
